# Results reported in ChEMBL document CHEMBL3886235, “Epoxyeicosatrienoic acid analogs and methods of making and using the same” (2015).
# Sequences of proteins named here, by UniProt entry; tags and fusion partners are left off.
# UniProt P34913, whole entry: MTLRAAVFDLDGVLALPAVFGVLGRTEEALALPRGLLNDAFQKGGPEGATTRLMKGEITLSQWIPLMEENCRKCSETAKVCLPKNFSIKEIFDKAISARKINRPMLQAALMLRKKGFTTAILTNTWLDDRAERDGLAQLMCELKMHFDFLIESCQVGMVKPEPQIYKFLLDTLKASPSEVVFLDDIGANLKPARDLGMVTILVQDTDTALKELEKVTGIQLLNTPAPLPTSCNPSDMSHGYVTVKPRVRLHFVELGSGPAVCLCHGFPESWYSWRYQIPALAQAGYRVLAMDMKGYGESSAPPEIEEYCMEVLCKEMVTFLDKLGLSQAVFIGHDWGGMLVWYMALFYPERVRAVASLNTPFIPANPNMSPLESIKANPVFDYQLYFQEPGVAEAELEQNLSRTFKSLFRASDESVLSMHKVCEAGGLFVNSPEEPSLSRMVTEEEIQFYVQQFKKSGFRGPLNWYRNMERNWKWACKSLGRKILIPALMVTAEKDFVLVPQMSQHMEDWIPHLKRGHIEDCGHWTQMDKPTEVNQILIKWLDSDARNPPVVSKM
# Target: Bifunctional epoxide hydrolase 2 (Homo sapiens, UniProt P34913)
# Experiment: Inhibition Assay: Compounds were tested for their ability to inhibit recombinant soluble epoxide hydrolase (sEH) protein. The assay utilizes (3-Phhenyl-oxiranyl)-acetic acid cyano-(6-methoxy-naphthalen-2-yl)-methyl ester (PHOME), a sensitive substrate for sEH that can be used to monitor the activity of both human and murine enzymes. Hydrolysis of the substrate epoxide yields a highly fluorescent product, 6-methoxy-2-Naphthaldehyde, which can be monitored at excitation and emission wavelengths of 330 and 465 nm, respectively. See Wolf et al., Anal Biochem 355:71-80, 2006 PMID: 16729954. Human recombinant sEH was incubated with substrate and compounds ranging in concentration from 0.1 to 1000 nM.
structure (smiles),measurement,value
CCCCCNC(=O)NCCCC/C=C\CCCCCCC(=O)N[C@H](CC(=O)O)C(=O)O,IC50,392 nM
